Columns and labels:
GL261 mouse glioma = details: 10 mg/kg intratumorally, a single time
CT26 tumor = details: 10 mg/kg intratumorally, a single time

## O=[P@]1(S)OC[C@H]2O[C@@H]3[C@H](F)[C@@H]2O[P@](=O)(S)OC[C@H]2O[C@H]([C@H](F)[C@@H]2O1)n1cnc2c(ncnc21)NC/C=C/CNc1ncnc2c1ncn23 [Compound 1a]
GL261 mouse glioma
  activity at local sc tumors: potent activity
GL261 mouse glioma; into the sc tumor
  curative systemic activity (treated animals): 5 of 8
CT26 tumor
  activity towards the local sc tumors: potent activity
CT26 tumor; into the sc tumor
  curative systemic activity (treated animals): 9 of 10
